We go through 1 substance from paper PMC5645071 (Journal of controlled release : official journal of the …, 2015).

In data set [1] the test system is H1650 cancer stem cell xenograft tumor. Format: in vivo. As to conditions: 20 mg/kg oral gavage.
Data set [2] concerns H1650 cancer stem cell orthotopic lung tumor. The class given is in vivo. As to conditions: 20 mg/kg oral gavage.

In the case of 3, 3-Diindolylmethane-14 [DIM-14], the “weight loss or other signs of toxicity in mice” value in data set [1] and in data set [2] was “did not observe any weight loss or other signs of toxicity” in each case.
